Results from publication PMC3226499, “Environmental Impact on Vascular Development Predicted by High-Throughput Screening” (Environmental Health Perspectives, 2011).

Tested on: six prioritized vascular targets (VEGFR2, TIE2, CCL2, PAI-1, CXCL10, uPAR)
Assay: Vascular bioactivity score (VBS): weighted sum of activity across 23 ToxCast assays
Set-up: species or system human
Settings: pVDCs with rabbit-specific effects

CC(C)OP(=S)(OC(C)C)SCCNS(=O)(=O)c1ccccc1
VBS: 2.17
